For the data set, the system named is male Swiss Webster mice. The data set is described as follows: Lethality assay in mice. The note with it: oral doses 50, 25, 12.5 and 6.25 mg/kg.

Take `CC[C@@H]1CN2CC[C@@]3(O)C(=Nc4cccc(OC)c43)[C@@H]2C[C@@H]1/C(=C\OC)C(=O)OC` [7-hydroxymitragynine, 7-Hydroxymitragynine]: the Oral lethality outcome is on record as “none of the mice expired”.

(Values after paper PMC6662923 (Chemical research in toxicology, 2018).)
